Measured values as given in patent US20070196886A1 (priority 2004, published 2007).
Where two headings read alike, the source gives them in different places.

Amino acid sequences for entries named in this document (tags omitted).
UniProt P0A8T7, whole entry: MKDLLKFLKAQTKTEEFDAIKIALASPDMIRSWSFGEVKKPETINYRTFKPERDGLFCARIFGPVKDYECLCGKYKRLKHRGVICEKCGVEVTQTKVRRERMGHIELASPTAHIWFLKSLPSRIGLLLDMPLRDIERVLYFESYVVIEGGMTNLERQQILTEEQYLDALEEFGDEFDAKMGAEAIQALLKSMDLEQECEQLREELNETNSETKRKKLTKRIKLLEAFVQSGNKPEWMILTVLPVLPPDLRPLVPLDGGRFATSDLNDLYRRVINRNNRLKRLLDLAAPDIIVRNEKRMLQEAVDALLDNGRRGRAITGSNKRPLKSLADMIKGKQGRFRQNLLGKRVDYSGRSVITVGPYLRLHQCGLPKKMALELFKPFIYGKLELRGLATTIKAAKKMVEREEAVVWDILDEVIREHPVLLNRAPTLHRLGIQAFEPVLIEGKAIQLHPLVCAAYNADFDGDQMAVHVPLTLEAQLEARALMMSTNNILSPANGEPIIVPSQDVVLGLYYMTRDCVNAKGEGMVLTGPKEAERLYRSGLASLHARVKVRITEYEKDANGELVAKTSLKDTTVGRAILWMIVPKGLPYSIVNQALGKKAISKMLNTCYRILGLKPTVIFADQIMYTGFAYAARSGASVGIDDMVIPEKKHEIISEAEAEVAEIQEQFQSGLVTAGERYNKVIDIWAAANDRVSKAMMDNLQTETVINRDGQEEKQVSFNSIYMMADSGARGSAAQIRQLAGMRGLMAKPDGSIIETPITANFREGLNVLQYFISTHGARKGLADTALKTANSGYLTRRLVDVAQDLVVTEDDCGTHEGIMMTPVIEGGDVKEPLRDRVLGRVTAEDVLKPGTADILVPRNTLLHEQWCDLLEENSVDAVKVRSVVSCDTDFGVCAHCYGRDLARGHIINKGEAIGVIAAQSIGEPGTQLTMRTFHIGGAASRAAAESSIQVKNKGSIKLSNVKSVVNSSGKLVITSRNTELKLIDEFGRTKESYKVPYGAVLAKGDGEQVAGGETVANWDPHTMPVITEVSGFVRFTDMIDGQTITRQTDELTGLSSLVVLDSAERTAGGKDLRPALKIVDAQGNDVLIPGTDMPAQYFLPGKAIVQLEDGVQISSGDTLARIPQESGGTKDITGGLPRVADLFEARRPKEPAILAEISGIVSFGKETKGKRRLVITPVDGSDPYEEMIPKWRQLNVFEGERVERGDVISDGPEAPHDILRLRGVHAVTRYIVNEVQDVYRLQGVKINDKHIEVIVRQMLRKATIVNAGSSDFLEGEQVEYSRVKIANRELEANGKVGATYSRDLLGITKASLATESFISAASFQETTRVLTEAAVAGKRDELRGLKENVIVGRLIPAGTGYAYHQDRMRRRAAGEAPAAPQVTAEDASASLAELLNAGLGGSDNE
UniProt P0A8V2, whole entry: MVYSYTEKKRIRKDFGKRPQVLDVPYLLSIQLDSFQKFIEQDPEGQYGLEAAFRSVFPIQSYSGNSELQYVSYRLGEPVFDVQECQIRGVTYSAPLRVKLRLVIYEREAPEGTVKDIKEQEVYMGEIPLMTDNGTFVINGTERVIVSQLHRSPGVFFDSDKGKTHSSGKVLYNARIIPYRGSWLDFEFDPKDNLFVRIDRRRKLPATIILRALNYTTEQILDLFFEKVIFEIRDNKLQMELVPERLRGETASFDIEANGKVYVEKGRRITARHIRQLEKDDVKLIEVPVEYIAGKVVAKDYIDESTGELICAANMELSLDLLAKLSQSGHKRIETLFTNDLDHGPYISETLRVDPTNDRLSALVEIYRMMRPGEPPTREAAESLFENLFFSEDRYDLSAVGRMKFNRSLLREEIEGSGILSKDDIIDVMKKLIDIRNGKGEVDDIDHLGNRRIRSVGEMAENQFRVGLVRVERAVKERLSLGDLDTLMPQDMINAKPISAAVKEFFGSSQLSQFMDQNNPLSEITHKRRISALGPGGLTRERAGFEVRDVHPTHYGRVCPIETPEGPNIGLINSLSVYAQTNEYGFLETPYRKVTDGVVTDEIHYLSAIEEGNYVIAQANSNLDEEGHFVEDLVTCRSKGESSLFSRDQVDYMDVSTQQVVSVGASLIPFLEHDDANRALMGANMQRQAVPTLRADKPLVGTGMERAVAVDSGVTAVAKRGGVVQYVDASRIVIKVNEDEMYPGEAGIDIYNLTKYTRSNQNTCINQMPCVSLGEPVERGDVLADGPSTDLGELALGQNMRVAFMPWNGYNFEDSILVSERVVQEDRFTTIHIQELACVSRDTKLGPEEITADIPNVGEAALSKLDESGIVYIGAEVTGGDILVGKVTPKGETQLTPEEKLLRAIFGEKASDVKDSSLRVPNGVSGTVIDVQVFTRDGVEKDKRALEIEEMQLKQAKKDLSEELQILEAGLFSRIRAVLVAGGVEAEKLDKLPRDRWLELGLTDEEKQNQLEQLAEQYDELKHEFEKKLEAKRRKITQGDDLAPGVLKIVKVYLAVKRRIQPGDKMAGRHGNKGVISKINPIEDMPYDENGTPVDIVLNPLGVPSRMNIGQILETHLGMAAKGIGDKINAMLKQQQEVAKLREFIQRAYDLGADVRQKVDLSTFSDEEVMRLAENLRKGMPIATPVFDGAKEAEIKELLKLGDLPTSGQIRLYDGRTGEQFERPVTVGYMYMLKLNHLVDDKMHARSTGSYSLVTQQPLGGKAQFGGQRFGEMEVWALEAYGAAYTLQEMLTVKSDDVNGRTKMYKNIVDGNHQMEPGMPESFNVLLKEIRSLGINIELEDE

Tests used:
[1] = molecular target: T1, RNAP holoenzyme (Escherichia coli, UniProt P0A8T7+P0A8V2); format: biochemical; details: partial-competitive model; FIG. 3F
Procedure: Following 15 min at 37° C., 0.5 μl 1 mg/ml heparin was added, and, following a further 2 min at 37° C., 1 μl of 0.25-5 mM (γ-AmNS)UTP (Molecular Probes) was added, and reaction mixtures were transferred to sub-micro fluorometer cuvettes (Starna Cells). Following 2 min at 37° C., RNA synthesis was initiated by addition of 2.5 μl 10 mM ApA, and fluorescence emission intensity was monitored 5 min at 37° C. [excitation wavelength=360 nm and emission wavelength=500 nm; excitation and emission slit widths=4 nm; QuantaMaster QM1 spectrofluorometer (PTI)]. The quantity of UMP incorporated into RNA was determined from the quantity of (γ-AmNS)UTP consumed, which, in turn, was calculated as follows (Schlageck et al., (1979) J. Biol. Chem. 254, 12074-12077): (γ-AmNS)UTPconsumed=[(γ-AmNS)UTP0](Ft−F0)/(12.4×F0) (1) where (γ-AmNS)UTP0 is the quantity of (γ-AmNS) UTP at time 0, F0 is the fluorescence emission intensity at time 0, and Ft is the fluorescence emission intensity at time t. Data were fit to full-competitive, partial-competitive, full-noncompetitive, partial-noncompetitive, full-uncompetitive, partial-uncompetitive, full-mixed, and partial-mixed models of inhibition as in the preceding section.

[2] = molecular target: T1, RNAP holoenzyme; format: biochemical; details: partial-competitive model; 3-mer and 4-mer abortive products; FIG. 3E
Procedure: Following 15 min at 37° C., 0.5 μl 1 mg/ml heparin was added, and, following a further 2 min at 37° C., RNA synthesis was initiated by addition of 2 μl 5 mM ApA and 125 μM (or 250 μM, 500 μM, and 1 mM) each of [α-^32P]UTP (0.6 Bq/fmol), ATP, CTP, GTP. Following 5 min at 37° C., reactions were terminated by addition of 10 μl 80% formamide, 10 mM EDTA, 0.04% bromophenol blue, and 0.04% xylene cyanol. Products were heated 10 min at 90° C., resolved by urea-PAGE (Sambrook and Russel, (2001)), and quantified using a storage-phosphor scanner (Storm 860; Molecular Dynamics). Identities of tri- and tetranucleotide abortive products were defined as in Borowiec and Gralla, (1985) J. Mol. Biol. 184, 587-598). Data were fit to full-competitive, partial-competitive, full-noncompetitive, partial-noncompetitive, full-uncompetitive, partial-uncompetitive, full-mixed, and partial-mixed models of inhibition using the Fit-To-Model feature of the SigmaPlot Enzyme Kinetics Module (SPSS).

[3] = molecular target: T2, DAC-σ^70 RNAP holoenzyme (Escherichia coli, UniProt P0A8T7+P0A8V2); format: binding; details: read-out: equilibrium dissociation constant, Kd
T2 construct: made in house; host or cells: E. coli (core as in Niu et al. 1996; σ^70 derivative as in Mukhopadhyay et al. 2001)

In the case of Microcin J25 [MccJ25], the Ki [1] is reported as 1200 ± 300 nM, the Ki [2] is reported as 1400 ± 200 nM and the Kd [3] is reported as 500 nM.
